This is an account of results in patent US20230270692A1, “COMPOUNDS FOR CHRONIC DISORDERS” (Pillai Universal LLC, priority 2020, published 2023).

The subject of this series is xenograft nude mice models (triple-negative breast cancer, pancreatic, liver, colon cancer). The experiment in a line: In vivo metastasis / stage IV tumor studies in xenograft nude mice versus standard drugs.

A word on the mortality: it is the percentage killed. A high value points to fewer survivors. With “Herceptin: current treatment standard drug, Target HER2 receptors”, under “mouse, in vivo”, the Toxicity result was “Hematological” and the mortality was 60%. The mortality (treating stage IV cancer) was 60%.
